Tests used:
QR2 [1] = target: T1, QR2 (Homo sapiens, UniProt P16083); assay: QR2 activity assay, BNAH fluorescence (standard/primary); details: read-out: QR2 IC50 Fluorescence; Supplementary Table 1
QR2 [2] = target: T1, QR2; assay: QR2 orthogonal assay, BNAH absorbance at 350 nm; details: read-out: QR2 IC50 Absorbance; Supplementary Table 1
QR1 [3] = target: T2, QR1 (Homo sapiens, UniProt P15559); assay: QR1 selectivity assay, fluorescence; details: read-out: QR1 IC50 Fluorescence; Supplementary Table 1
QR1 [4] = target: T2, QR1; assay: QR1 selectivity assay, absorbance; details: read-out: QR1 IC50 Absorbance; Supplementary Table 1
THLE-2 cells = assay: ATP depletion cell toxicity assay (CellTiter Glo), 72 h; details: read-out: THLE2 IC50, 72 h exposure

Protein sequences, listed by entry. Tags and fused reporters are not part of them.
UniProt P16083, whole entry: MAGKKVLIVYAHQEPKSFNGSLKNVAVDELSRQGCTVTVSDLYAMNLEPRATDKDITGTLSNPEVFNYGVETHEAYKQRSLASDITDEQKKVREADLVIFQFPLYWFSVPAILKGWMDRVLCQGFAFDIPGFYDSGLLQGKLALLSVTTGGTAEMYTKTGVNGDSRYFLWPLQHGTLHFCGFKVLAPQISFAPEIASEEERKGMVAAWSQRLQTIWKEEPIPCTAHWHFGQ
UniProt P15559, whole entry: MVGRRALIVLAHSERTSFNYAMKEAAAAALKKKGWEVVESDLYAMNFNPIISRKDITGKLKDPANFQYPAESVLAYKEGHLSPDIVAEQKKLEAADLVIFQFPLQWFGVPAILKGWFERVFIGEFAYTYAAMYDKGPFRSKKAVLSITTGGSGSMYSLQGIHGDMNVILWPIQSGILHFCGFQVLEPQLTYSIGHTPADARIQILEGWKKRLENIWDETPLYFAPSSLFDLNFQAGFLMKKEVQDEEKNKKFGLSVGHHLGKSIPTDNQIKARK

Row | IC50 (QR2 [1]) | IC50 (QR2 [2]) | IC50 (QR1 [3]) | IC50 (QR1 [4]) | SMILES | IC50 (THLE-2 cells)
1 | > 9.9 µM | 7.15 µM | 7.98 µM | 5.98 µM | Cn1cc(C2=CCN(S(=O)(=O)c3cccc4cccnc34)CC2)c2cccnc21 | 
2 | 1.22 µM | 0.87 µM | > 9.9 µM | > 9.99 µM | Cc1cnc2c(S(=O)(=O)N(C)C(C)c3ccc(S(C)(=O)=O)cc3)cccc2c1 (stereo not drawn) | 31.7 µM
